Experiment: Screening Study (Example 3): sulfoxide formed in API solution with each agent, HPLC
Format: physicochemical
Conditions: 24 hours exposed to air at room temperature, not protected from light
Procedure: A buffer solution was prepared by adding 0.72 g of Na2HPO4, 0.24 g KH2PO4 and 500 mL of deionized water into a container and mixing.
A solution of each agent in the table below was prepared by adding 500 mg or each agent into a 25 mL volumetric flask and filling the flask to volume by the addition of the prepared buffer solution.
A 6% solution of API was prepared by adding 3.0 g the disodium salt of 4-(((R)-1-carboxy-2-(((2E,6E)-3,7,11-trimethyldodeca-2,6,10-trien-1-yl)thio)ethyl)amino)-4-oxobutanoic acid to a 50 mL volumetric flask and filling the flask to volume by the addition of methanol, followed by mixing.
A screen was performed for each agent as follows: (1) 2.5 mL of the stock solution of API and 2.5 mL of each agent was added into a 100 mL volumetric flask and the contents were mixed (repeated three times for each agent); and (2) allowing each resulting mixture to sit for 24 hours exposed to air at room temperature and not protected from light. A blank solution was prepared (3×) by adding buffer solution into the 100 mL volumetric flask in place of the agent. After 24 hours, each volumetric flask was filled to volume by the addition of methanol, and an aliquot of each mixture was removed and analyzed by HPLC.
The area of the sulfoxide of 4-(((R)-1-carboxy-2-(((2E,6E)-3,7,11-trimethyldodeca-2,6,10-trien-1-yl)thio)ethyl)amino)-4-oxobutanoic acid produced in each solution was calculated as follows: % area sulfoxide=Rsulfoxide/(Rparent+Rsulfoxide), wherein Rsuffoxide=the area under the response of the sulfoxide in the HPLC trace, and Rparent=the area under the response of 4-(((R)-1-carboxy-2-(((2E,6E)-3,7,11-trimethyldodeca-2,6,10-trien-1-yl)thio)ethyl)amino)-4-oxobutanoic acid in the HPLC trace.

D-α-Tocopherol polyethylene glycol succinate
% area sulfoxide relative to % area Control: 0.149 | (% area sulfoxide for each agent/% area sulfoxide in Blank): About 1 | Average % area sulfoxide for 3 runs per agent (API disodium salt solution plus agent): 1.126%

Reference: patent US20200179319A1, “PHARMACEUTICAL FORMULATIONS AND THEIR USE” (Signum Biosciences, Inc., priority 2016, published 2020)
